ChEMBL document CHEMBL5126566, “Comparison of three zinc binding groups for HDAC inhibitors - A potency, selectivity and enzymatic kinetics study” (Bioorg Med Chem Lett, 2022)
pIC50: −log10 of the molar value.

Target: T1, Polyamine deacetylase HDAC10 (Homo sapiens, UniProt Q969S8)
T1 sequence (Q969S8 whole entry): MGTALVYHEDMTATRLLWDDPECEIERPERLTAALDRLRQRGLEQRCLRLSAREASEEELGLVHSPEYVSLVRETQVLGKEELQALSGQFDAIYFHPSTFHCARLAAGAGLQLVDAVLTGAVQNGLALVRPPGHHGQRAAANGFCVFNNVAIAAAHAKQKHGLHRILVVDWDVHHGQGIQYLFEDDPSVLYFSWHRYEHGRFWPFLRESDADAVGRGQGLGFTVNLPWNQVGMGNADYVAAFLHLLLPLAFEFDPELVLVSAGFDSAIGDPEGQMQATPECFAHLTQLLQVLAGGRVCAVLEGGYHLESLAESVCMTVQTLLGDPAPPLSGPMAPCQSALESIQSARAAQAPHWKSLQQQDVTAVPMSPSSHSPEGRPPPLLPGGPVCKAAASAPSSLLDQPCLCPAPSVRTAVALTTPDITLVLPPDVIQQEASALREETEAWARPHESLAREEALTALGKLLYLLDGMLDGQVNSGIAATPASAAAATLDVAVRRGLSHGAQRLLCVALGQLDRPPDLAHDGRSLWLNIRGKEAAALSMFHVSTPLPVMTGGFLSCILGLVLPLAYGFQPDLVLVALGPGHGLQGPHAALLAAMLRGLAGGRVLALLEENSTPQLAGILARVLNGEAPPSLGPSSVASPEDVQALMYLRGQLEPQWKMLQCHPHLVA
Experiment: Inhibition of HDAC10 (unknown origin)

A pIC50 of 6.62 was found for `O=C(CCCCCCC(=O)Nc1ccccc1)NO` [VORINOSTAT] in this work.
